In ChEMBL document CHEMBL5729424, “Tricyclic heterocycles as BET protein inhibitors” (2022):

Molecular target: Bromodomain-containing protein 4 (Homo sapiens, UniProt O60885)
Assay: Inhibitors were first serially diluted in DMSO and added to the plate wells before the addition of other reaction components. […] The assays were carried out at room temperature in the assay buffer (50 mM Tris-HCl, pH 7.5, 0.01% Tween-20, 0.01% BSA, 5 mM DTT), containing 50 nM Biotin-labeled tetra-acetylated histone H4 peptide (H4Ac4) and BRD4-BD1 or BRD4-BD2 protein at concentration less than 1 nM. […] After plate sealing, the plate was incubated in the dark at room temperature for 75 min. before reading on a PHERAstar FS plate reader (BMG Labtech). IC50 determination was performed by fitting the curve of percent control activity versus the log of the inhibitor concentration using the GraphPad Prism 5.0 software.

`Cc1noc(C)c1-c1ccc2nc(N3CC[C@H](O)C3)n3c2c1OCC3c1cccnc1` (stereo partly specified) was tested. Which IC50 did it give?
Its IC50 is “in the range around 550 nM”.
